{"source": "patent EP0310305B1", "about": "(priority 1987, dated 1989)", "test_system": "healthy male volunteers", "assay": "Cathartic effect in human volunteers", "settings": "oral, 20 µg in coconut oil (200 µl)", "data": [{"molecule": "CCCCC(F)C(=O)CC[C@H]1[C@H](O)CC(=O)[C@@H]1C/C=C\\CCCC(=O)OC", "note": "(some centres unmarked) [Test Drug 2, 13,14-dihydro-15-keto-16R,S-fluoro-prostaglandin]", "values": [{"measurement": "time of loose or explosive diarrhea after administration", "value": "2 to 5", "unit": "h"}, {"measurement": "men who complained of aerenterectasia and developed symptoms of loose or explosive diarrhea", "setting": "5 men", "value": "4 out of 5"}]}]}
